Laboratory results: patent US11667652B2, “MCL1 inhibitors” (Gilead Sciences, Inc., priority 2019, dated 2023)

Sequences of proteins named here, by UniProt entry; tags and fusion partners are left off. Residues count along the entry.
UniProt Q07820, 171-327 limits assumed: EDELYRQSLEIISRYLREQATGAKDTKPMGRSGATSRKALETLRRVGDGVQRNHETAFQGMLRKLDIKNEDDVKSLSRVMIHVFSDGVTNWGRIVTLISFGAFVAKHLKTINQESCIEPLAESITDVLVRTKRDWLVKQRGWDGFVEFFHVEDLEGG

Key:
[1] = tested on: SKBR3 cells; assay: SKBR3 Cell Viability Assay; conditions: read-out: MCL1 CV SKBR3 EC50, 72 hours, CellTiter Glo
Procedure: SKBR3 Cell Viability Assay Materials
SKBR3 Cells (ATCC HTB-30) were obtained from ATCC (Manassas, Va.) and cultured in McCoy 5A's medium (ATCC 30-2007)+10% fetal bovine serum (SH30071.03, HyClone, Pittsburgh, Pa.) plus 1× Penicillin-Streptomycin L-glutamine (Corning 30-009-CI, Corning, N.Y.).
The cell viability assay was conducted in a 384-well tissue culture plate (Grenier 781086, Monroe, N.C.) in a total volume of 70 μL. Test compounds were prepared in 1,000×, serially diluted, and pre-spotted into 384-well tissue culture plate by Echo 555 Liquid Handler (Labcyte Inc., San Jose, Calif.). Seventy μL of 6,000 SKBR3 cells were dispensed into each well of the plate and incubated at 37° C. with 5% CO2 for 72 hours. At the end of incubation, 2× CellTiter Glo (CTG) reagents (1 part buffer with 2 parts substrate) (Promega, Madison, Wis.) were prepared, and the plate and the reagent were equilibrated to room temperature for 30 minutes. CTG reagent was added to each plate by Biomek FX at 20 μL/well with 5 times pipetting and mixing to induce cell lysis. Luminescence was read by Envision multimode reader (PerkinElmer). Percent inhibition was calculated as followed: % Inhibition=100%*(Well−Neg)/(Pos−Neg) Neg, negative control, DMSO Pos, positive control, 10 μM Puromycin

[2] = molecular target: MCL1/Bim (Homo sapiens (Human), UniProt Q07820); assay: MCL1/Bim Binding AlphaLISA Assay; conditions: read-out: MCL1/Bim IC50, recombinant human 6xHis-MCL1 (171-327), biotinylated Bim peptide (51-76)
Procedure: MCL1/Bim Binding AlphaLISA Assay.
Inhibition of the MCL1 and Bim interaction was measured in the following AlphaLISA assay.
Recombinant human MCL1 protein (C-terminal 6×His Tagged MCL1 containing residues 171-327) was generated at Gilead Sciences, Inc. (Foster City, Calif.). A biotinylated peptide derived from human Bim (residues 51-76) was purchased from CPC Scientific (Sunnyvale, Calif.). (CPC 834113). AlphaLISA anti-6His- acceptor beads (AL128R), AlphaScreen Streptavidin donor beads (6760002B), and Proxiplate-384 Plus (6008289) were purchased from PerkinElmer.
The AlphaLISA assay was performed in a 384-well Proxiplate in a total volume of […]. The reaction mixture contained 0.0625 nM 6×His-MCL1 (171-327), 0.0625 nM biotinylated-Bim peptide, 10 μg/mL AlphaLISA anti-6×His-AlphaLISA acceptor beads, 40 μg/mL AlphaScreen streptavidin donor beads, and serially diluted test compounds in the binding buffer (20 mM Hepes, pH 7.5 (Teknova H1035); 150 mM NaCl (Promega V4221); 0.002% Brij 35 (Thermo Scientific 20150); 1 mM Dithiothreitol (DTT) Solution (Affymetrix 70726); 0.01% BSA (BioLabs B9000S)). 1,000× test compounds were pre-spotted onto 384-well Proxiplate (Labcyte Echo) by Echo 555 Liquid Handler (Labcyte Inc., San Jose, Calif.) followed by incubation of 5 μL MCL1(171-327) for 1 hour. Then 5 μL Bim (51-76) was added and incubated for 2 hours. Five μL AlphaLISA anti-6His-AlphaLISA acceptor beads were then added for 1 hour followed by addition of 5 μL AlphaScreen streptavidin donor beads for 1 hour. The reaction plates were then read on an Envision multimode reader (PerkinElmer) using AlphaScreen settings. Percent inhibition was calculated as shown below: % Inhibition=100%*(Well−Neg)/(Pos−Neg) Neg: negative control, DMSO Pos: positive control, no MCL1 protein, no biotinylated-Bim peptide

EC50 [1] [nM]	IC50 [2] [nM]	Structure (SMILES)
294	0.177	COc1nn(C)cc1C(=O)N[S@@]1(=O)=NC(=O)c2ccc3c(c2)N(C[C@@H]2CC[C@H]2[C@@H](OC)C[C@@H]2[C@H](OC[C@@H]2C)[C@H](C)C1)C[C@@]1(CCCc2cc(Cl)ccc21)CO3 (single isomer, unassigned)
115	0.05	CO[C@H]1/C=C/C[C@H](C)C[S@@](=O)(NC(=O)c2cnn(C)c2)=NC(=O)c2ccc3c(n2)N(C[C@@H]2CC[C@H]21)C[C@]1(CO3)C[C@@H]2C[C@@H]2c2cc(Cl)ccc21
100	0.072	CO[C@H]1/C=C/C[C@H](C)C[S@@](=O)(NC(=O)COC2CCOCC2)=NC(=O)c2ccc3c(c2)N(C[C@@H]2CC[C@H]21)C[C@]1(CO3)C[C@@H]2C[C@@H]2c2cc(Cl)ccc21

The remaining lines, values behind:

Structure (SMILES)	EC50 [1] [nM]	IC50 [2] [nM]
CO[C@H]1/C=C/C[C@H](C)C[S@@](=O)(NC(=O)c2cc3n(c2)C[C@H](C)OC3)=NC(=O)c2ccc3c(n2)N(C[C@@H]2CC[C@H]21)C[C@@]1(CCCc2cc(Cl)ccc21)CO3	57.3	0.22
CCn1cc(C(=O)N[S@@]2(=O)=NC(=O)c3ccc4c(c3)N(C[C@@H]3CC[C@H]3[C@@H](OCC3CC3)/C=C/C[C@H](C)C2)C[C@@]2(CCCc3cc(Cl)ccc32)CO4)cn1	361	0.124
COC1CN(Cc2cc(C(=O)N[S@@]3(=O)=NC(=O)c4ccc5c(c4)N(C[C@@H]4CC[C@H]4[C@@H](OC)/C=C/C[C@H](C)C3)C[C@@]3(CCCc4cc(Cl)ccc43)CO5)cn2C)C1	57.1	0.04
